Legend:
CB1 receptors [1] = target: T1, CB1 receptors (Mus musculus, UniProt P47746); test: ERK1/2 phosphorylation by Western blot in CB1-expressing DBT subclones; type: cell-based; conditions: 1 µM
T1 construct: expressed in transfected cells

The chains behind the UniProt entries cited, without tags or fusion partners.
UniProt P47746, whole entry: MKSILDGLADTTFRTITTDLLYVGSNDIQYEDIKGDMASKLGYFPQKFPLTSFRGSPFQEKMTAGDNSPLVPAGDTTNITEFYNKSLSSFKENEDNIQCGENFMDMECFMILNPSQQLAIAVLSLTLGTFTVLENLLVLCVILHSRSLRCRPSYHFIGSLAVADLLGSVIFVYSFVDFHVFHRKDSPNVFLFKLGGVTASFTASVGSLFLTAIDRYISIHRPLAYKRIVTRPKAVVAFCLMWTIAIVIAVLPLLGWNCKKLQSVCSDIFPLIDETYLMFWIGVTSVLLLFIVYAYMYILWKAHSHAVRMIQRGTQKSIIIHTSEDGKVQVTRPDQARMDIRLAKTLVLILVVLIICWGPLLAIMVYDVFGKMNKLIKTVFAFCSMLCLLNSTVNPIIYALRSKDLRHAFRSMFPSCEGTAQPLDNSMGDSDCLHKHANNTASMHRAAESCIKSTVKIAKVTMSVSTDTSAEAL

CB1 receptors [2] = target: T1, CB1 receptors; test: AKT phosphorylation by Luminex multiplex immunoassay in CB1-expressing DBT subclones; type: cell-based; conditions: 1 µM

(−)-cis-3-[2-hydroxy-4-(1,1-dimethylheptyl)phenyl]-trans-4-(3-hydroxypropyl) cyclohexanol [CP-55,940]
ERK1/2 phosphorylation above vehicle-treated controls (CB1 receptors [1]; 5 min, CB1-low, CB1-mid, CB1-high subclones): significant increase | Time of peak of ERK1/2 phosphorylation (CB1 receptors [1]; CB1-expressing subclones): 5 min | Time of return of ERK1/2 phosphorylation to basal (CB1 receptors [1]; CB1-expressing subclones): 20 to 30 min | Time of peak of AKT phosphorylation (CB1 receptors [2]; CB1-high subclone): 3 min | Time of return of AKT phosphorylation to the basal level (CB1 receptors [2]; CB1-high subclone): 5 min | AKT phosphorylation (CB1 receptors [2]; CB1-low subclone): did not significantly increase | AKT phosphorylation (CB1 receptors [2]; CB1-mid and CB1-high subclones): most pronounced increase
